Assay results published in patent US10300024B2, “Proteinoid compounds, process of preparing same and uses thereof” (Bar-Ilan University, priority 2015, dated 2019).

Test: Carboxyl group analysis by titration
Format: physicochemical
Settings: titrimetric, back-titration
Protocol: Without being bound by any particular theory, it is believed that the content of free carboxyl groups in the synthesized proteinoids is an essential factor in determining their solubility in different media, thus helping to understand their stability at different sites in the human body with different pHs. In order to determine the free carboxyl groups in the synthesized proteinoids, a titrimetric method was carried out. Briefly, to a known quantity of dry proteinoid, a known excess of 0.05 N NaOH was added, followed by the addition of 37% formaldehyde solution. The unreacted NaOH was back-titrated with standard 0.05 N HCl. A blank titration was also performed. In addition, human serum albumin (HSA) was titrated for comparison.

**Q.** Which “[Carboxyl groups]” value does the source give for “Albumin: human serum albumin titrated for comparison” here?
**A.** 56 mmol/g
